From ChEMBL document CHEMBL1122877, “New antihistaminic N-heterocyclic 4-piperidinamines. 1. Synthesis and antihistaminic activity of N-(4-piperidinyl)-1H-benzimidazol-2-amines” (1985)

Sequences of proteins named here, by UniProt entry; tags and fusion partners are left off.
UniProt P31389, whole entry, looked up: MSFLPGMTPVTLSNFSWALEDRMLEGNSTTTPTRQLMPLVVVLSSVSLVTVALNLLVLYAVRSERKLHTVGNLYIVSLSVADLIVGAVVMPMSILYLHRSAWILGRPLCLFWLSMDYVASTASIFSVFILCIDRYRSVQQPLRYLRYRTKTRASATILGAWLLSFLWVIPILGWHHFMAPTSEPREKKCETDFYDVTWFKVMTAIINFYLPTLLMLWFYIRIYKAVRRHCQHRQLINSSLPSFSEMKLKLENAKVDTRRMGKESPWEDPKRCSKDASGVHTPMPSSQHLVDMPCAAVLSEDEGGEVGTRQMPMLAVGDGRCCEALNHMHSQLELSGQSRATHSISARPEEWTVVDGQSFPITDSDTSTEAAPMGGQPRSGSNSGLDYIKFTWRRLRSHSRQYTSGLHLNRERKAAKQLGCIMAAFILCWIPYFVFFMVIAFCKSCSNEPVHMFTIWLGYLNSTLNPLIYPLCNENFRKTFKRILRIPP

Target: Histamine H1 receptor (Cavia porcellus) (UniProt P31389)
Test: In vitro inhibition of histamine(H1) induced contraction of guinea pig ileum.
Type: functional, tissue-based
How it was run: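 Isolated guinea pig ileum in a bath. Cumulative histamine curves every 5 min, logarithmically increasing doses (5.4 × 10^-8, 1.6 × 10^-7, 5.4 × 10^-7 M, ...) until maximal contraction. Repeated after 5 min antagonist contact, then washout and two further curves. Highest test dose normally 0.04 mg/L. A10 = antagonist concentration giving a 10-fold rightward shift of the histamine curve.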

Row | Structure (SMILES) | A10 [mg/L]
1 | c1ccc(Cn2c(NC3CCN(CCCOc4ccccc4)CC3)nc3ccccc32)cc1 | 0.01
2 | CC(C)N(c1nc2ccccc2n1Cc1ccccc1)C1CCN(CCc2ccccc2)CC1 | > 0.01
3 | O=C(CCCN1CCC(Nc2nc3ccccc3n2Cc2ccccc2)CC1)c1ccc(F)cc1 | 0.025
4 | CCN(c1nc2ccccc2[nH]1)C1CCN(CCc2ccccc2)CC1 | 0.029
5 | CCn1c(NC2CCN(CCc3ccccc3)CC2)nc2ccccc21 | 0.0063
6 | c1ccc(Cn2c(NC3CCN(CCC(c4ccccc4)c4ccccc4)CC3)nc3ccccc32)cc1 | 0.04
7 | C=CCN1CCC(Nc2nc3ccccc3n2CC)CC1 | 0.04
8 | Oc1nc2ccccc2n1CCCN1CCC(Nc2nc3ccccc3n2Cc2ccccc2)CC1 | > 0.01
9 | CCCn1c(NC2CCN(CCc3ccccc3)CC2)nc2ccccc21 | 0.02
10 | Cc1ccc(Cn2c(NC3CCN(CCc4ccccc4)CC3)nc3ccccc32)cc1 | 0.02
11 | Fc1ccccc1Cn1c(NC2CCN(CCc3ccccc3)CC2)nc2ccccc21 | 0.0063
12 | CN(c1nc2ccccc2n1Cc1ccccc1Cl)C1CCN(CCc2ccccc2)CC1 | 0.01
13 | Fc1ccc(C(c2ccc(F)cc2)n2c(NC3CCN(CCc4ccccc4)CC3)nc3ccccc32)cc1 | > 0.04
14 | Fc1ccc(Cn2c(NC3CCN(CCc4ccccc4)CC3)nc3ccccc32)cc1 | 0.0063
15 | c1ccc(Cn2c(NC3CCN(C(c4ccccc4)c4ccccc4)CC3)nc3ccccc32)cc1 | 0.04
16 | COc1ccc(Cn2c(N(C)C3CCN(CCc4ccccc4)CC3)nc3ccccc32)cc1 | 0.01
17 | CCn1c(NC2CCN(CC3COc4ccccc4O3)CC2)nc2ccccc21 (centres undefined) | > 0.04
18 | c1ccc(Cn2c(NC3CCN(CCc4cccs4)CC3)nc3ccccc32)cc1 | 0.0063
19 | COc1ccccc1Cn1c(N(C)C2CCN(CCc3ccccc3)CC2)nc2ccccc21 | 0.0063
20 | c1ccc(CCN2CCC(Nc3nc4ccccc4[nH]3)CC2)cc1 | 0.01
21 | CCn1nnn(CCN2CCC(Nc3nc4ccccc4n3Cc3ccccc3)CC2)c1=O | 0.025
22 | c1ccc(CCN2CCC(Nc3nc4ccccc4n3Cc3ccccc3)CC2)cc1 | 0.003
23 | CCn1c(N(Cc2ccccc2)C2CCN(CCc3ccccc3)CC2)nc2ccccc21 | 0.016

Row | Structure (SMILES) | A10 [mg/L]
24 | Cn1c(NC2CCN(CCn3nnn(-c4ccccc4)c3=O)CC2)nc2ccccc21 | 0.02
25 | Clc1ccc(CCN2CCC(Nc3nc4ccccc4n3Cc3ccccc3)CC2)cc1 | 0.02
26 | CC(C)n1c(NC2CCN(CCc3ccccc3)CC2)nc2ccccc21 | > 0.04
27 | CN(c1nc2ccccc2[nH]1)C1CCN(CCc2ccccc2)CC1 | 0.02
28 | CN(c1nc2ccccc2n1Cc1ccc(F)cc1)C1CCN(CCc2ccccc2)CC1 | 0.0063
29 | c1ccc(CCN2CCC(Nc3nc4ccccc4n3Cc3ccccn3)CC2)cc1 | 0.0063
30 | CCn1c(NC2CCN(CCCC(c3ccc(F)cc3)c3ccc(F)cc3)CC2)nc2ccccc21 | 0.025
31 | CN(c1nc2ccccc2n1Cc1ccccc1)C1CCN(CCc2ccccc2)CC1 | 0.005
32 | CC(c1ccccc1)N1CCC(Nc2nc3ccccc3n2Cc2ccccc2)CC1 (centres undefined) | 0.0063
33 | CCCCCn1c(NC2CCN(CCc3ccccc3)CC2)nc2ccccc21 | 0.011
34 | CCOc1ccc(CCN2CCC(Nc3nc4ccccc4n3Cc3ccccc3)CC2)cc1 | 0.0063
35 | c1ccc(CCN2CCC(N(Cc3ccccc3)c3nc4ccccc4[nH]3)CC2)cc1 | 0.0076
36 | COc1cc(CCN2CCC(Nc3nc4ccccc4n3Cc3ccccc3)CC2)cc(OC)c1OC | > 0.01
37 | Fc1ccc(C(CCCN2CCC(Nc3nc4ccccc4n3Cc3ccccc3)CC2)c2ccc(F)cc2)cc1 | > 0.04
38 | c1ccc(CCN2CCC(N(Cc3ccccc3)c3nc4ccccc4n3Cc3ccccc3)CC2)cc1 | > 0.04
39 | CCn1c(NC2CCN(C/C=C/c3ccccc3)CC2)nc2ccccc21 | > 0.04
40 | c1ccc(CCN2CCC(Nc3nc4ccccc4n3C3CCCC3)CC2)cc1 | > 0.04
41 | COc1ccccc1CCN1CCC(Nc2nc3ccccc3n2Cc2ccccc2)CC1 | 0.01
42 | Cn1c(NC2CCN(CCCC(c3ccc(F)cc3)c3ccc(F)cc3)CC2)nc2ccccc21 | > 0.04
43 | c1ccc(Cn2c(NC3CCN(CCOc4ccccc4)CC3)nc3ccccc32)cc1 | 0.01
44 | Fc1ccc(CCN2CCC(Nc3nc4ccccc4n3Cc3ccccc3)CC2)cc1 | 0.01
45 | Clc1ccc(Cn2c(NC3CCN(CCc4ccccc4)CC3)nc3ccccc32)cc1 | 0.01
46 | CCn1c(NC2CCN(CCC(C(=O)N(C)C)(c3ccccc3)c3ccccc3)CC2)nc2ccccc21 | > 0.04

Row | Structure (SMILES) | A10 [mg/L]
47 | CCCN(c1nc2ccccc2n1Cc1ccccc1)C1CCN(CCc2ccccc2)CC1 | > 0.01
48 | Cn1c(NC2CCN(CCc3ccccc3)CC2)nc2ccccc21 | 0.005
49 | CCn1c(N(C(C)C)C2CCN(CCc3ccccc3)CC2)nc2ccccc21 | > 0.01
50 | COc1ccc(CCN2CCC(Nc3nc4ccccc4n3Cc3ccccc3)CC2)cc1 | > 0.01
51 | c1ccc(CCN2CCC(Nc3nc4ccccc4n3CCc3ccccc3)CC2)cc1 | 0.0075
52 | CCN(c1nc2ccccc2n1Cc1ccccc1)C1CCN(CCc2ccccc2)CC1 | 0.017
53 | CC(Cn1c(NC2CCN(CCc3ccccc3)CC2)nc2ccccc21)c1ccccc1 (centres undefined) | > 0.04
54 | Clc1ccccc1Cn1c(NC2CCN(CCc3ccccc3)CC2)nc2ccccc21 | 0.01
55 | C(=C\c1ccccc1)/CN1CCC(Nc2nc3ccccc3n2Cc2ccccc2)CC1 | 0.025
56 | CN(c1nc2ccccc2n1Cc1ccc(Br)cc1)C1CCN(CCc2ccccc2)CC1 | 0.04
57 | CC(c1ccc(F)cc1)n1c(NC2CCN(CCc3ccccc3)CC2)nc2ccccc21 (centres undefined) | > 0.01
58 | CCCCN1CCC(Nc2nc3ccccc3n2Cc2ccccc2)CC1 | 0.0063
59 | CC(c1ccccc1)n1c(NC2CCN(CCc3ccccc3)CC2)nc2ccccc21 (centres undefined) | 0.025
60 | COc1ccc(CCN2CCC(Nc3nc4ccccc4n3Cc3ccccc3)CC2)cc1OC | > 0.01
61 | CCCCn1c(NC2CCN(CCc3ccccc3)CC2)nc2ccccc21 | 0.0051
62 | CCn1c(NC2CCN(CCCC(=O)c3ccc(F)cc3)CC2)nc2ccccc21 | 0.01
63 | c1ccc(Cn2c(NC3CCN(CC4COc5ccccc5O4)CC3)nc3ccccc32)cc1 (centres undefined) | 0.01
64 | Oc1nc2ccccc2n1CCN1CCC(Nc2nc3ccccc3n2Cc2ccccc2)CC1 | 0.025
65 | c1ccc(CN2CCC(Nc3nc4ccccc4n3Cc3ccccc3)CC2)cc1 | 0.01
66 | CCCCn1c(N(C)C2CCN(CCc3ccccc3)CC2)nc2ccccc21 | 0.0063
67 | C=CCN1CCC(Nc2nc3ccccc3n2Cc2ccccc2)CC1 | 0.0063
68 | COc1cccc(CCN2CCC(Nc3nc4ccccc4n3Cc3ccccc3)CC2)c1 | 0.0063
69 | CCn1c(NC2CCN(C(C)C)CC2)nc2ccccc21 | > 0.04

Row | Structure (SMILES) | A10 [mg/L]
70 | Fc1ccc(CN2CCC(Nc3nc4ccccc4n3Cc3ccccc3)CC2)cc1 | 0.01
71 | CCCCN(c1nc2ccccc2[nH]1)C1CCN(CCc2ccccc2)CC1 | 0.03
72 | N#CC1(c2ccccc2)CCC(N2CCC(Nc3nc4ccccc4n3Cc3ccccc3)CC2)CC1 (centres undefined) | 0.025
73 | CN1CCC(Nc2nc3ccccc3n2Cc2ccccc2)CC1 | 0.0025
74 | c1ccc(CCN2CCC(N(c3nc4ccccc4[nH]3)C3CC3)CC2)cc1 | > 0.04
75 | CN(C)C(=O)C(CCN1CCC(Nc2nc3ccccc3n2Cc2ccccc2)CC1)(c1ccccc1)c1ccccc1 | 0.04
76 | Cc1ccc(Cn2c(N(C)C3CCN(CCc4ccccc4)CC3)nc3ccccc32)cc1 | 0.0063
77 | FC(F)(F)c1cccc(CCN2CCC(Nc3nc4ccccc4n3Cc3ccccc3)CC2)c1 | > 0.04
78 | Brc1ccc(Cn2c(NC3CCN(CCc4ccccc4)CC3)nc3ccccc32)cc1 | 0.025
79 | Cc1cccc(CCN2CCC(Nc3nc4ccccc4n3Cc3ccccc3)CC2)c1 | > 0.01
80 | CN(c1nc2ccccc2n1Cc1ccc(Cl)cc1)C1CCN(CCc2ccccc2)CC1 | 0.0063
81 | CCn1c(N(C)C2CCN(CCc3ccccc3)CC2)nc2ccccc21 | 0.0025
82 | CCn1c(NC2CCN(CCC(C#N)(c3ccccc3)c3ccccc3)CC2)nc2ccccc21 | > 0.04
83 | c1ccc(Cn2c(NC3CCN(C4CCCCC4)CC3)nc3ccccc32)cc1 | 0.01
84 | O=c1[nH]c2ccccc2n1CCCN1CCN(C(c2ccccc2)c2ccccc2)CC1 [OXATOMIDE] | 0.014
85 | CCCCCCCn1c(NC2CCN(CCc3ccccc3)CC2)nc2ccccc21 | > 0.04
86 | CCCCCCn1c(NC2CCN(CCc3ccccc3)CC2)nc2ccccc21 | 0.025
87 | c1ccc(CCCN2CCC(Nc3nc4ccccc4n3Cc3ccccc3)CC2)cc1 | 0.01
88 | CN1CCC(Nc2nc3ccccc3n2C)CC1 | > 0.04
89 | OC(COc1ccccc1)CN1CCC(Nc2nc3ccccc3n2Cc2ccccc2)CC1 (centres undefined) | 0.03
